Tests used:
T. brucei = conditions: ratio of the L6 cells IC50 to the T. brucei IC50
[1] = tested on: both strains of P. falciparum; test: In vitro activity and selectivity, both strains of P. falciparum; type: cell-based, Plasmodium falciparum; conditions: ratio of the L6 cells IC50 to the P. falciparum IC50

| SMILES | selectivity index for T. brucei (SIT.b) (T. brucei) | selectivity index for P. falciparum (SIP.f) [1] |
| --- | --- | --- |
| N=C(N)c1ccc(NC(=O)CCCCC(=O)Nc2ccc(C(=N)N)cc2)cc1 [Compound 6] | > 50,000 | – |
| N=C(N)c1ccc(NC(=O)CCCC(=O)Nc2ccc(C(=N)N)cc2)cc1 [Compound 5] | – | > 33,000 |
